# Results reported in US10912763B2 (priority 2010, dated 2021).
# Assays:
# [1] = tested on: acute post-operative pain following orthopedic surgery (bunionectomy); settings: human, in vivo
# [2] = tested on: painful diabetic neuropathy; settings: human, in vivo
structure (smiles),measurement,setting,value
CN1CC[C@]23c4c5ccc(O)c4O[C@H]2[C@@H](O)C=C[C@H]3[C@H]1C5 [morphine],"TEAE ASAT increased, subjects",[1]; both,2.0%
same,"TEAE Dizziness, subjects",[1]; both,24.0%
same,"TEAE Hot flush, subjects",[1]; both,4.0%
same,"TEAE Hyperhidrosis, subjects",[1]; both,6.0%
same,"TEAE Nausea, subjects",[1]; both,66.0%
same,"TEAE Pruritus, subjects",[1]; both,2.0%
same,"TEAE Somnolence, subjects",[1]; both,16.0%
same,"TEAE Vomiting, subjects",[1]; both,40.0%
same,TEAE: ASAT increased,[1]; both,2.0%
same,TEAE: Dizziness,[1]; both,24.0%
same,TEAE: Hot flush,[1]; both,4.0%
same,TEAE: Hyperhidrosis,[1]; both,6.0%
same,TEAE: Nausea,[1]; both,66.0%
same,TEAE: Pruritus,[1]; both,2.0%
same,TEAE: Somnolence,[1]; both,16.0%
same,TEAE: Vomiting,[1]; both,40.0%
same,subjects with SAE's,[1]; both,0
same,subjects with TEAE(s),[1]; both,46 (92.0) n (%)
same,subjects with TEAE(s) (n (%)),[1]; both,46 (92.0) n (%)
same,"subjects with TEAE(s), related",[1]; both,42 (84.0) n (%)
same,"subjects with TEAE(s), serious",[1]; both,0 n (%)
same,subjects with TEAE(s): related (n (%)),[1]; both,42 (84.0) n (%)
same,subjects with TEAE(s): serious (n (%)),[1]; both,0 n (%)
same,total number of TEAE's,[1]; both,144 n
same,"total number of TEAE's, related",[1]; both,99 (68.8) n (%)
same,total number of TEAE's: related (n (%)),[1]; both,99 (68.8) n (%)
same,"LS mean Δplacebo, sum of pain intensity differences",[1],−7.12
same,"LS mean, sum of pain intensity differences",[1],42.01
same,"Sum of pain intensity differences, LS mean",[1],42.01
same,"Sum of pain intensity differences, LS mean Δplacebo",[1],−7.12
same,"sum of pain intensity differences, LS mean",[1],42.01
same,"sum of pain intensity differences, LS mean Δplacebo",[1],−7.12
same,Number of events leading to withdrawal,[2]; both,3
same,Number of serious TEAEs,[2]; both,0
same,Subjects with TEAEs (number),[2]; both,34
same,Subjects with TEAEs (percent),[2]; both,(94.4%)
same,TEAEs (%) Back pain,[2]; both,5.6%
same,TEAEs (%) Bacteriuria,[2]; both,13.9%
same,TEAEs (%) Cold sweat,[2]; both,0%
same,TEAEs (%) Constipation,[2]; both,25.0%
same,TEAEs (%) Dizziness,[2]; both,19.4%
same,TEAEs (%) Dyspepsia,[2]; both,2.8%
same,TEAEs (%) Fatigue,[2]; both,19.4%
same,TEAEs (%) Headache,[2]; both,25.0%
same,TEAEs (%) Hyperglycemia,[2]; both,2.8%
same,TEAEs (%) Nausea,[2]; both,47.2%
same,TEAEs (%) Peripheral oedema,[2]; both,0%
same,TEAEs (%) Pruritus,[2]; both,13.9%
same,TEAEs (%) Vision blurred,[2]; both,0%
same,TEAEs (%) Visual impairment,[2]; both,0%
same,TEAEs (%) Vomiting,[2]; both,52.8%
same,Total number of TEAEs,[2]; both,209
same,"Total number of TEAEs, at least possibly related (in brackets)",[2]; both,(156)
same,TEAEs (%) Oral discomfort,"[2]; both, po",0%
same,"Change from overall baseline (pain intensity, NRS), ANCOVA",[2],−2.5
same,"Change from overall baseline (pain intensity, NRS), descriptive statistics",[2],−2.27
same,"Change from period baseline (pain intensity, NRS), ANCOVA",[2],−2.2
same,"Change from period baseline (pain intensity, NRS), descriptive statistics",[2],−2.04
